From ChEMBL document CHEMBL1828623, “Overcoming hERG activity in the discovery of a series of 4-azetidinyl-1-aryl-cyclohexanes as CCR2 antagonists” (Bioorg Med Chem Lett, 2011)

Protein sequences, listed by entry. Tags and fused reporters are not part of them. Lines headed by an entry give the natural chain unless they say otherwise; changes in a name come on top.
UniProt P41597: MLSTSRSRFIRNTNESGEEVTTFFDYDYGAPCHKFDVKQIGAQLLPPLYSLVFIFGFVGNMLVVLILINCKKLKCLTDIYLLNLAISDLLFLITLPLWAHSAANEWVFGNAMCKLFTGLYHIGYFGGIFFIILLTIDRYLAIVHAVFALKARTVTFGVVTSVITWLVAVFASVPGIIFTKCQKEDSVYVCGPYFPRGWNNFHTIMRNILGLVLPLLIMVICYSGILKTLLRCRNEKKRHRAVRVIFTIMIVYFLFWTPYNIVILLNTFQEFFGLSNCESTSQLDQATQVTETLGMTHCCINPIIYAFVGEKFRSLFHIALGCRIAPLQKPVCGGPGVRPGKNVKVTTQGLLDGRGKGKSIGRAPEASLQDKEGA

What follows are compounds tested against C-C chemokine receptor type 2 (Homo sapiens, UniProt P41597) (assay: Displacement of [125I]-MCP1 from CCR2 in human THP1 cells after 2 hrs by microplate scintillation and luminescence counting).
Type: cell-based, THP-1
Method in brief: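 They were incubated with 0.5 nM ¹²⁵I-MCP-1 and varying test compound concentrations for 2 h at 30 °C. Cold MCP-1 defined nonspecific binding. Buffer-only blanks were subtracted and values compared with vehicle.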

SMILES | IC50 [nM]
COC(=O)c1ccc([C@H]2CC[C@H](N3CC(NC(=O)CNC(=O)c4cccc(C(F)(F)F)c4)C3)CC2)cc1 | 80
O=C(CNC(=O)c1cccc(C(F)(F)F)c1)NC1CN([C@H]2CC[C@H](c3cnccn3)CC2)C1 | 44
CN(C)c1ncc([C@H]2CC[C@H](N3CC(NC(=O)CNC(=O)c4cccc(C(F)(F)F)c4)C3)CC2)cn1 | 31
Nc1cccnc1[C@H]1CC[C@H](N2CC(NC(=O)CNC(=O)c3cccc(C(F)(F)F)c3)C2)CC1 | 43
CN(C)c1cccc([C@]2(O)CC[C@@H](N3CC(NC(=O)CNC(=O)c4cccc(C(F)(F)F)c4)C3)CC2)c1 | 15
